# Experimental data reported in PubChem BioAssay AID887 (National Center for Advancing Translational Sciences (NCATS), 2007).
# Amino acid sequences for entries named in this document (tags omitted).
# UniProt P16050, whole entry: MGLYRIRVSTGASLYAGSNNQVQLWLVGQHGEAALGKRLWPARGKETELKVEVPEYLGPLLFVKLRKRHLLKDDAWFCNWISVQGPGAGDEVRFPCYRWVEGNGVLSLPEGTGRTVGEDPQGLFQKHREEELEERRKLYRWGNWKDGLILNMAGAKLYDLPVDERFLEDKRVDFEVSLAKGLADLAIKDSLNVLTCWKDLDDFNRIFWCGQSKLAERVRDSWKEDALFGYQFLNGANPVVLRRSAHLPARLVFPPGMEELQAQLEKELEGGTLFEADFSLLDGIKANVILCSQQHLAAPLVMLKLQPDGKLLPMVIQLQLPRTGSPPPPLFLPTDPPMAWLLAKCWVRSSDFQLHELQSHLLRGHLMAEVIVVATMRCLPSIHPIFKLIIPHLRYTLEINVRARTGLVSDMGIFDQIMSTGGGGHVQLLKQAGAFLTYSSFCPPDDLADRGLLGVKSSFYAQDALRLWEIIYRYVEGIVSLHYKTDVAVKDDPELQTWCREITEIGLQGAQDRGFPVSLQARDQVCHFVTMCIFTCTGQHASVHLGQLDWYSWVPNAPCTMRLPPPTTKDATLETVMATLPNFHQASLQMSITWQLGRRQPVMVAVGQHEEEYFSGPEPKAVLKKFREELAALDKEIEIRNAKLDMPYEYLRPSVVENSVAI
# The list shows a part of the results, in another mix than the full data. Records with an inconclusive call do not appear. Activity calls are given as the source filed them. Calls follow the shape of the dose curve; as a rule, active = well fitted inhibition curve with a large enough effect; inconclusive = small, poorly fitted or top-dose-only effect; inactive = no such curve, though single readings can be large or run the other way.
# Biological target: Polyunsaturated fatty acid lipoxygenase ALOX15 (Homo sapiens) (UniProt P16050)
# Assay: qHTS Assay for Inhibitors of 15-hLO (15-human lipoxygenase); also: nearly all actives have a fitted effect of over 55% in size
# Details: purified 15hLO-1, xylenol orange hydroperoxide absorbance; at 57.1 µM (top of the series) unless noted
# % is scaled to controls: 0 for no effect and ±100 for the full control effect.
row,SMILES,"activity change, negative = inhibition"
1,NCC[C@@H](N)CSP(=O)(O)O,inactive: 4.36% [at 11.4 µM]
2,COc1ccccc1OP(C)(=O)Nc1c(C)n(C)n(-c2ccccc2)c1=O (configuration not stated),inactive: 7.45%
